Measured values as given in patent publication US7452885B2, “Amino-5-(6-membered)heteroarylimidazolone compounds and the use thereof for β-secretase modulation” (Wyeth, priority 2005, dated 2008).

By UniProt entry, the sequences of proteins in these tests, tags left out. Residues count along the entry.
UniProt P56817, 46-501 limits assumed: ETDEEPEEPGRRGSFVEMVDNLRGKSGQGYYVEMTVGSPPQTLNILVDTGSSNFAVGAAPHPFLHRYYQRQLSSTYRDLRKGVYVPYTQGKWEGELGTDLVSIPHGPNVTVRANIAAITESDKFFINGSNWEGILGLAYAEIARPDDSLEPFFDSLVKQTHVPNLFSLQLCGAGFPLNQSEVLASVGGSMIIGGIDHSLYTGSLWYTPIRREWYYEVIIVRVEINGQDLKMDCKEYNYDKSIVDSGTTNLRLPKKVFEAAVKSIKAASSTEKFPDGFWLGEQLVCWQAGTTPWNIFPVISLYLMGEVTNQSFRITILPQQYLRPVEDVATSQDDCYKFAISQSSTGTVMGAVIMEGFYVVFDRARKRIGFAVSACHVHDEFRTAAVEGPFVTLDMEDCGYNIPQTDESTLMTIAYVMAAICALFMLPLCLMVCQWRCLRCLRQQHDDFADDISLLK

Molecular target: human BACE1 (Homo sapiens, UniProt P56817)
Assay: Fluorescent kinetic assay, BACE-1 (Example 114)
Assay type: biochemical
Settings: read-out: BACE-1 (IC50 μM); 10 nM human BACE1, 25 μM substrate WABC-6, 50 mM Na-Acetate pH 4.5, room temperature

In the case of `CC(C)c1cc(C2(c3cccc(-c4cc(F)ccc4F)c3)N=C(N)N(C)C2=O)ccn1` (stereo not shown), the IC50 is reported as 0.11 to 1 µM.
`CCc1cc(C2(c3ccc(F)c(-c4cnccc4F)c3)N=C(N)N(C)C2=O)cc(CC)n1` (stereo not shown) was tested, and the IC50 was 0.01 to 0.1 µM.
`COc1cccc(C2(c3ccncc3)N=C(N)N(C)C2=O)c1` (stereo not shown) gave an IC50 greater than 1 µM.
With `COc1ncc(C2(c3cccc(-c4cncnc4)c3)N=C(N)N(C)C2=O)cn1` (stereo not shown) the IC50 was 0.11 to 1 µM.
`COc1ncc(C2(c3cccc(-c4cccnc4F)c3)N=C(N)N(C)C2=O)cn1` (stereo not shown) showed an IC50 of 0.01 to 0.1 µM.
Compound `CN1C(=O)C(c2ccncc2)(c2cccc(Br)c2)N=C1N` (stereo not shown) has an IC50 greater than 1 µM.
In the case of `CN1C(=O)C(c2ccncc2)(c2cccc(-c3ccccc3)c2)N=C1N` (stereo not shown), the IC50 is reported as 0.11 to 1 µM.
